Amino acid sequences for entries named in this document (tags omitted). Residues count along the entry.
UniProt P02870, 31-210 limits assumed: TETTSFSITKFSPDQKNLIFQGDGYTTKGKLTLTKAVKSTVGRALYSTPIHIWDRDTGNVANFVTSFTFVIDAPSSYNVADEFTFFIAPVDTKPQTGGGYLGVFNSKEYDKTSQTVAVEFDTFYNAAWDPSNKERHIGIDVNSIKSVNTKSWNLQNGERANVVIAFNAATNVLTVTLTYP
UniProt P02870, 218-269 limits assumed: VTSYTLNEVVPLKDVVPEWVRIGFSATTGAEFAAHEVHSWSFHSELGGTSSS

According to patent US8906832B2, “Quantitative analysis of carbohydrate-protein interactions using glycan microarrays: determination of surface and solution dissociation constants” (Academia Sinica, priority 2008, dated 2014):

Legend:
[1] = molecular target: T1, Con A (Canavalia ensiformis, UniProt P02866); experiment: Direct binding assay on glycan microarray, FITC labeled Con A; settings: read-out: mean KD,surf; Man1 printed at 100 to 10 μM; FITC labeled Con A 800 nM to 25 nM; s.d.=4.7 nM
[2] = molecular target: lectins or antibodies (Lens culinaris, UniProt P02870); experiment: Direct binding on glycan microarray, lectin or antibody not named; settings: binding protein not given; for Kd: read-out: KD (dissociation constant, surface)
[3] = molecular target: T1, Con A; experiment: Competitive binding assay on glycan microarray (solution KD / Ki); settings: read-out: solution KD for Con A; competition of free oligomannose with the corresponding oligomannose surface

Row | SMILES | Kd [1] [µM] | Fmax (maximal fluorescence intensity) [2] | Kd [2] [µM] | Kd [3] [µM]
1 | NCCCCCO[C@H]1O[C@H](CO)[C@@H](O)[C@H](O)[C@@H]1O | 0.083 | 9458 | 3.19 | 250
2 | NCCCCCO[C@H]1O[C@H](CO)[C@@H](O)[C@H](O[C@H]2O[C@H](CO)[C@@H](O)[C@H](O)[C@@H]2O[C@H]2O[C@H](CO)[C@@H](O)[C@H](O)[C@@H]2O[C@H]2O[C@H](CO)[C@@H](O)[C@H](O)[C@@H]2O)[C@@H]1O | – | 36070 | 0.49 | 55
